{"source": "patent US7745489B2", "about": "“Compositions and methods for inhibition of phospholipase A2 mediated inflammation” (The Regents of the University of California, priority 2002, dated 2010)", "key": {"[1]": {"system": "formalin induced flinching", "test": "Formalin induced flinching", "type": "in vivo, rat", "conditions": "IT pretreatment, versus IT vehicle, result in words"}, "[2]": {"system": "carrageenan-induced thermal hyperalgesia", "test": "Carrageenan-induced thermal hyperalgesia, paw withdrawal latency", "type": "in vivo, rat", "conditions": "300 μg IT, pretreatment -10 min; T=0 to 180 min; vehicle control 77±4"}, "spontaneous movement": {"system": "spontaneous movement", "test": "Spontaneous movement after IT injection, automated flinch counting device without formalin", "conditions": "for Effect on spontaneous movement / normal motor function: intrathecal administration, result in words"}}, "data": [{"smiles": "CCCCC/C=C\\C/C=C\\C/C=C\\C/C=C\\CCCCOP(=O)(F)OC", "note": "(stereo not drawn)", "values": [{"measurement": "Formalin flinching Phase 1", "setting": "[1]; Phase 1 (0-9 min)", "value": "not significantly affected"}, {"measurement": "Formalin flinching Phase 2", "setting": "[1]; Phase 2 (10-60 min)", "value": "statistically significant reduction"}, {"measurement": "Hyperalgesic index", "setting": "[2]", "value": "25±11"}, {"measurement": "Effect on spontaneous movement / normal motor function", "setting": "spontaneous movement", "value": "no effect on normal motor function"}, {"measurement": "Effect on spontaneous movement / normal motor function", "setting": "spontaneous movement; listed as MAPF", "value": "no statistically significant difference"}, {"measurement": "Number of counts", "setting": "spontaneous movement; spontaneous movement during 60 minutes, started 10 minutes after IT injection, no formalin", "value": "311 ± 40", "unit": "counts"}]}]}
